Ab-91 heavy chain CDR variants: yeast mating affinities

The target is the same throughout: PDVDLGDISGINAS, from the HR2 region of SARS-CoV-2 spike.

Ab-91 is the parent antibody, in scFv form: VL, then three GGGGS repeats, then VH. The light chain is unchanged in all variants.
VL: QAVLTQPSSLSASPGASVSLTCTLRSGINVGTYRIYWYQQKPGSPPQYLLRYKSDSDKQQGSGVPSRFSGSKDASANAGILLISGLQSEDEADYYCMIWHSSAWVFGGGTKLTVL
VH: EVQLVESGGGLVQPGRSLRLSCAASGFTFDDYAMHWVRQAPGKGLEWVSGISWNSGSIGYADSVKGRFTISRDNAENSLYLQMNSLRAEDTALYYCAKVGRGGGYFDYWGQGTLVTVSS

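AAYL51 was designed without a model: most single CDR substitutions and a random sample of double and triple ones. The assay is AlphaSeq: two haploid yeast populations carry antibody and antigen on their surface. Mating (16 h, 30 °C) was followed by selection of diploids and sequencing of their barcodes. Read counts were normalised to the haploid input and turned into Kd by a linear fit to BCL2-family pairs of known affinity, for each replicate. Each pool was mated in three replicate cultures.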

The parent's heavy chain CDRs are GFTFDDYAMH, GISWNSGSIGYADSVK, VGRGGGYFDY; each variant's own CDRs replace them letter for letter. Scale: log10 of Kd in nM, estimated from mating counts; low values are strong binders. "nd" means that the variant was in the library but no mating with the target was seen in that replicate; the authors take this as a sign of poor binding, and no number exists. As a blank, each scFv also met three strains without target: over library AAYL51, 21% of these pairings were detected, typically at 4.54 and seldom below 3.26. The control count says in how many pairings with the empty strains this scFv gave a signal. Parent in this assay: reference entry 1.86, copy in this library 0.88.

Variant GFTFDDYAMA / GISWNSGSIGYADSVK / VGRGEGYPDY showed nd, nd, nd (controls 0 of 9).
Variant GFTFDDYFMH / GISWNSGSIGYADSVK / PGRGGGYSDY showed 4.22, nd, nd (controls 2 of 9).
Variant GNTFDDYAMH / GISWYSGSIGYADSVK / VGRGGFYFDY showed nd, nd, nd (controls 1 of 9).
Variant GFTADDYAMH / GASWNSGSIGYADSVK / YGRGGGYFDY showed 4.41, nd, nd (controls 0 of 9).
Variant GFTFDDYAMH / GISWNSGSIHYADSVK / VYRGGWYFDY showed 3.98, nd, nd (controls 0 of 9).
Variant GFTFDHYGTH / GISWNSGSIGYADSVK / VGRGGGYFDY showed 2.26, 2.33, 2.31 (controls 2 of 9).
Variant GFTFDDYADH / GISWNDGSIGWADSVK / VGRGGGYFDY showed 3.50, nd, nd (controls 1 of 9).
Variant GFTPDDYAKH / GISWNSGSIGYADSVK / VGWGGGYFDY showed 4.01, nd, nd (controls 2 of 9).
Variant GFKFDDYAMH / GISWNSGRIGYADSVK / VGRGGGYFDY showed nd, nd, nd (controls 1 of 9).
Variant GLHFDDYPMH / GISWNSGSIGYADSVK / VGRGGGYFDY showed 4.53, nd, nd (controls 2 of 9).
Variant GFTFDDYAMH / GPSWWSGSIGYADSVK / VWRGGGYFDY showed nd, nd, nd (controls 0 of 9).
Variant GFTFDDYAMH / GISWNEGSIGYWVSVK / VGRGGGYFDY showed nd, nd, nd (controls 0 of 9).
Variant GFTFDDYAMH / NISWQSGYIGYADSVK / VGRGGGYFDY showed nd, 6.01, 3.63 (controls 2 of 9).
Variant GFTFDDYAYH / GISWNSGSIGYADSVK / VGRGMFYFDY showed nd, nd, nd (controls 3 of 9).
Variant GFTFDDYAMH / GISWNSGSIGRTDSVK / VGRGGGYFDC showed nd, 4.92, 5.21 (controls 3 of 9).
Variant TFTFDDYAMH / GISWNSRSIGYADRVK / VGRGGGYFDY showed nd, nd, nd (controls 0 of 9).

Second part, the sequence after the result:

Read-out 4.70, nd, nd (controls 4 of 9), from GFTFDLYAMP / GISWNSGSIGYADSVK / VGRGGRYFDY.
Read-out 5.42, nd, 5.47 (controls 3 of 9), from GFTFDDYAMP / GGSWNSGSIGYADSYK / VGRGGGYFDY.
Read-out nd, nd, nd (controls 0 of 9), from GFTFDDNAMH / GISWNSGSIGQADSVH / VGRGGGYFDY.
Read-out nd, nd, 3.51 (controls 0 of 9), from GFTFQDYAMC / GISWNSGSIGYADSVK / VGRGIGYFDY.
Read-out 4.42, nd, nd (controls 1 of 9), from GFTGDDYAMH / GNSWNSGSIGYADSVK / VGRGGNYFDY.
Read-out nd, nd, nd (controls 1 of 9), from GGTFDDYAMA / GISWNSGSIGYADSVK / VVRGGGYFDY.
Read-out 5.06, 5.49, nd (controls 4 of 9), from GFTFDDYAMH / GISWNSGSIAGADSVK / VGRGGGHFDY.
Read-out nd, nd, nd (controls 0 of 9), from GFTEDDYAMH / GISWNSGSIGYADSVK / VGRGSGYHDY.
Read-out nd, nd, nd (controls 1 of 9), from VFIFRDYAMH / GISWNSGSIGYADSVK / VGRGGGYFDY.
Read-out nd, nd, nd (controls 4 of 9), from GFTFDDYAMH / GISWNSGVIGYADSHW / VGRGGGYFDY.
Read-out nd, nd, nd (controls 0 of 9), from GFTFDDYASH / GISWNSGSIGYADSVK / VGRGGYYIDY.
Read-out nd, nd, nd (controls 2 of 9), from GFTFDDYAMH / GISWNSGSIGYADSVQ / VMRGGGYFDY.
Read-out nd, nd, nd (controls 1 of 9), from CFTFDDYIMH / GISWNSGSIGYADEVK / VGRGGGYFDY.
Read-out nd, nd, nd (controls 0 of 9), from GFTFDDYAMH / TISANSGSIGYRDSVK / VGRGGGYFDY.
Read-out nd, nd, 4.28 (controls 0 of 9), from GFTFDDYAMH / GISWNSGSIRYADSVK / EGRGGGYFDY.
Read-out nd, nd, nd (controls 0 of 9), from GFTEDDYAMH / GISWNSGSIPYADSVN / VGRGGGYFDY.
Read-out 2.45, nd, nd (controls 0 of 9), from GFTFDDYPMH / GISNNSGSIGYADSVK / VGRGGGYFDW.

The opening 5 entries, copied out:

CDR-H1,CDR-H2,CDR-H3,"replicates, log10 nM",empty controls
GFTFDDYAMA,GISWNSGSIGYADSVK,VGRGEGYPDY,"nd, nd, nd",0/9
GFTFDDYFMH,GISWNSGSIGYADSVK,PGRGGGYSDY,"4.22, nd, nd",2/9
GNTFDDYAMH,GISWYSGSIGYADSVK,VGRGGFYFDY,"nd, nd, nd",1/9
GFTADDYAMH,GASWNSGSIGYADSVK,YGRGGGYFDY,"4.41, nd, nd",0/9
GFTFDDYAMH,GISWNSGSIHYADSVK,VYRGGWYFDY,"3.98, nd, nd",0/9

The measurements come from Engelhart et al. 2022 (doi:10.1038/s41597-022-01779-4) through the FLAb antibody collection.